The target in experiment [1] is human inducible NOS (iNOS) (Homo sapiens (Human), UniProt P35228). The experiment is described as follows: Human iNOS enzyme assay, radiometric. The note with it: read-out: Human iNOS; Table 2b.
A further experiment concerns the target Rat nNOS (Rattus norvegicus (Rat), UniProt P29476). The experiment is described as follows: Rat nNOS hemoglobin capture assay.
Another experiment deals with murine macrophage iNOS (Mus musculus (Mouse), UniProt P29477). The experiment is described as follows: Murine iNOS hemoglobin capture assay.
Another experiment deals with bovine eNOS (Bos taurus (Bovine), UniProt P29473). The experiment is described as follows: Bovine eNOS hemoglobin capture assay. It counts as biochemical.
Experiment [2] has as its system rat cortical neuronal cultures. Description: Neuroprotection of rat cortical cells against NMDA challenge. The note with it: 60-minute pre-incubation; 30 minutes 25 μM NMDA; propidium iodide after 24 hrs; FIG. 1.
A further experiment relates to Neuronal cultures. Description: Neuroprotection after oxygen-glucose deprivation (OGD), neuronal cultures. The note with it: 25 μM; 90-minute OGD; 60-minute pre-incubation; propidium iodide after 24 hours; FIG. 2.
Experiment [3] concerns NMDA-induced Ca^2+ influx. Description: NMDA induced Ca2+ influx, Fluo-4FF. The following applies: 10-50 μM; NMDA 25 μM, 15 minute; FIG. 3.
In the next experiment the test system is NMDA-induced currents. Description: NMDA-induced whole-cell currents in rat cortical neurons. The note with it: dose-dependent, FIG. 4.
The subject of experiment [4] is formalin-induced hind paw licking. Description: Formalin-induced paw licking in mice. The note with it: intraperitoneally 30 minutes before formalin, Phase II (20 to 30 minute), FIG. 5. It counts as in vivo.
For another experiment, the system named is traumatic brain injury. The experiment is described as follows: Mouse model of traumatic brain injury (TBI).
The next experiment has as its system CA1 hippocampal slices. Description: Evoked field potentials in CA1 hippocampal slices after OGD.
A further experiment relates to Hippocampal slices. Description: Mitochondrial metabolic activity in hippocampal slices after OGD, TTC staining. The following applies: 50 μM; 10 min OGD; control live normalized to 100%; n=8.
The test system of experiment [5] is L5/L6 spinal nerve ligation. Description: Chung spinal nerve ligation (SNL) model of neuropathic pain. The following applies: rats.
Where [6] appears, read: read-out: Bovine eNOS, Table 2a.
Setting [7] is: One hour after TBI, s.c. 5 minutes post-injury.
[8] abbreviates: read-out: Rat nNOS, Table 2a, tested form: HCl.
[9] abbreviates: read-out: Murine iNOS, Table 2a, tested form: HCl.

By UniProt entry, the sequences of proteins in these tests, tags left out. Residues count along the entry.
UniProt P35228, whole entry: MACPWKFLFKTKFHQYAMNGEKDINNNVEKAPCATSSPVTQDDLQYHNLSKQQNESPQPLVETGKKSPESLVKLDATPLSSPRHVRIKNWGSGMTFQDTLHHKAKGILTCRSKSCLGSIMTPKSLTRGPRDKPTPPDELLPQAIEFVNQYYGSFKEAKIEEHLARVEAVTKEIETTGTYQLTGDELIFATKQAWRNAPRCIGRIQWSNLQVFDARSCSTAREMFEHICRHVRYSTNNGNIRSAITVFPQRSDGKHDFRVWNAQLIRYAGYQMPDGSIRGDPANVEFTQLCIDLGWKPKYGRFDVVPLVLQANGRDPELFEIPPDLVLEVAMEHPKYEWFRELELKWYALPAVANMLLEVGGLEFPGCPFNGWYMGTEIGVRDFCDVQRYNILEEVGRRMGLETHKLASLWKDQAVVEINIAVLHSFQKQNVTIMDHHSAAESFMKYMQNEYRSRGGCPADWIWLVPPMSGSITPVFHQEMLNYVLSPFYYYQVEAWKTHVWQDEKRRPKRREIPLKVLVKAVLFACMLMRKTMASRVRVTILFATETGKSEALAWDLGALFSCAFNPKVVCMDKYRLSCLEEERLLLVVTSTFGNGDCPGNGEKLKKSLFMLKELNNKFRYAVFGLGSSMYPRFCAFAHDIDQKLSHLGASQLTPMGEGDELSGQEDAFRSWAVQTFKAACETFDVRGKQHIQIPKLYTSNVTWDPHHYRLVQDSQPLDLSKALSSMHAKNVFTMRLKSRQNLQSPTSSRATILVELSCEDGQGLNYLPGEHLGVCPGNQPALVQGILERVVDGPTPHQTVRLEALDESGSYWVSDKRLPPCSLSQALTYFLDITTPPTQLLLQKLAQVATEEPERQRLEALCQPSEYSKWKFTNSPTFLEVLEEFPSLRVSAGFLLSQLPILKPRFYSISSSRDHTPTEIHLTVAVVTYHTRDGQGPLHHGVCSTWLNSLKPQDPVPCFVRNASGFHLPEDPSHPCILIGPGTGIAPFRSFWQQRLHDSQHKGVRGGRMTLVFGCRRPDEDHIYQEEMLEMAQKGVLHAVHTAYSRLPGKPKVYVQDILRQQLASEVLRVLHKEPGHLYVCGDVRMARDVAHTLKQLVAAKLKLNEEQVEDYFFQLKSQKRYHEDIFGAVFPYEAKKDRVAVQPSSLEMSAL
UniProt P29476, whole entry: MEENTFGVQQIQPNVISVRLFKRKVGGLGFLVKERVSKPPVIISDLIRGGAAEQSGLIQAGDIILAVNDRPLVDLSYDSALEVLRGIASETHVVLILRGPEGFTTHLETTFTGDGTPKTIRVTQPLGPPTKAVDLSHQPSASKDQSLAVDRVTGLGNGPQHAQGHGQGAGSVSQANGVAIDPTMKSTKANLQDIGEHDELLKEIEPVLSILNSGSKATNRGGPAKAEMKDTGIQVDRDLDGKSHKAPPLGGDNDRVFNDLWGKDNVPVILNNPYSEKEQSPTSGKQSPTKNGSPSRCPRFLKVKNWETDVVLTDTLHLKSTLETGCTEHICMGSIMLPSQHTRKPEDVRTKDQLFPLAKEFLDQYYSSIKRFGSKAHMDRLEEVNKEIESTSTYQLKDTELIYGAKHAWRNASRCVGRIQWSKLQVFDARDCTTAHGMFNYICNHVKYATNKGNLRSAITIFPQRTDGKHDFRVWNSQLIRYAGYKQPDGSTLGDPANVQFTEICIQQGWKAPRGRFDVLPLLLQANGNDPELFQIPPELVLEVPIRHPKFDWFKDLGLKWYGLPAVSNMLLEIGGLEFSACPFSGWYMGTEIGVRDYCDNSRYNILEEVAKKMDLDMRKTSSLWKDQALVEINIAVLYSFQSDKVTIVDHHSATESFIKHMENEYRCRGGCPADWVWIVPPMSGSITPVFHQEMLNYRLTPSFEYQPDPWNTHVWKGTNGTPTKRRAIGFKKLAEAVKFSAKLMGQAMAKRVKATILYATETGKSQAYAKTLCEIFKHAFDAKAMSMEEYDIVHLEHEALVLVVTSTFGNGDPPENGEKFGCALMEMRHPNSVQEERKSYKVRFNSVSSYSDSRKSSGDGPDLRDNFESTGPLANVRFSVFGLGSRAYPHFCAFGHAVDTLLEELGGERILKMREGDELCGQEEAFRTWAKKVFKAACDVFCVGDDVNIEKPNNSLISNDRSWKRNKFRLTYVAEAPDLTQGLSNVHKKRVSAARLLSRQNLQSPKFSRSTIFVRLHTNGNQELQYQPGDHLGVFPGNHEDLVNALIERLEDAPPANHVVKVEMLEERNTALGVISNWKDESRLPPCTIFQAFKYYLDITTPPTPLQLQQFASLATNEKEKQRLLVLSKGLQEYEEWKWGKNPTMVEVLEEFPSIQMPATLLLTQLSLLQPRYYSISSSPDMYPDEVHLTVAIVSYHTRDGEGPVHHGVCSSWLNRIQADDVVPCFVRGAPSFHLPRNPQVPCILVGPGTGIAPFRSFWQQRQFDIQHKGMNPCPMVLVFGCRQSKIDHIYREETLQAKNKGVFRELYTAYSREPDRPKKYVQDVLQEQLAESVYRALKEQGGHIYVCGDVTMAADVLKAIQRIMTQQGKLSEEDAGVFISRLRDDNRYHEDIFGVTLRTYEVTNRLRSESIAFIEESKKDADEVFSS
UniProt P29477, whole entry: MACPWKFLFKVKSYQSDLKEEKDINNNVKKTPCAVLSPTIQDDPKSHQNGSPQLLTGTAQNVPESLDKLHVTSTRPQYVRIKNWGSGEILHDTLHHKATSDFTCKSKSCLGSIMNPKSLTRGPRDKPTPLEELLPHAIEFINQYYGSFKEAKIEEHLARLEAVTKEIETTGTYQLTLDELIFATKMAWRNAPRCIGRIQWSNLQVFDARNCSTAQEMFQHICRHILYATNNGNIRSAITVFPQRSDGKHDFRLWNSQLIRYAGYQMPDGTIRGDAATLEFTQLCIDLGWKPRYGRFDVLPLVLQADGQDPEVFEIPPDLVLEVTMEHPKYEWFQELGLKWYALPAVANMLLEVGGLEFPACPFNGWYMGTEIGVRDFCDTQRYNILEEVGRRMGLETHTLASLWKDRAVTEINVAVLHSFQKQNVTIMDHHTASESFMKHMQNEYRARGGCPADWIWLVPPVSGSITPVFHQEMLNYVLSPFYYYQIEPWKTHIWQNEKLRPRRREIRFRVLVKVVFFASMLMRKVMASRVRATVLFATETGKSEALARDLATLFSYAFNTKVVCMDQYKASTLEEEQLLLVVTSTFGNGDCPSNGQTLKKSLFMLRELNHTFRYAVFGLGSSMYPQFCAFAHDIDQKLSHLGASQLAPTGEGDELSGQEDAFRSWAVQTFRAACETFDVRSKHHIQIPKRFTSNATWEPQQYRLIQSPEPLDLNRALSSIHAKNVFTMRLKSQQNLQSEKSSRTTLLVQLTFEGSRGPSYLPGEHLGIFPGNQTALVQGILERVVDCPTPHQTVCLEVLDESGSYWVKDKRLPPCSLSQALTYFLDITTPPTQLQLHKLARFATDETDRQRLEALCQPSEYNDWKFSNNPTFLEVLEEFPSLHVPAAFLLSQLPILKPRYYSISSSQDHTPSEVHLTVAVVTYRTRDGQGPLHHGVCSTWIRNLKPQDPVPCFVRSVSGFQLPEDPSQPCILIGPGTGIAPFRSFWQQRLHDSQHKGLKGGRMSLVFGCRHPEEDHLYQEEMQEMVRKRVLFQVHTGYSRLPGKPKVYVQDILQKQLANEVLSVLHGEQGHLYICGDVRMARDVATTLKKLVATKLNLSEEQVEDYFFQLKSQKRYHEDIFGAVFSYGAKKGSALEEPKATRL
UniProt P29473, 2-1205 limits assumed: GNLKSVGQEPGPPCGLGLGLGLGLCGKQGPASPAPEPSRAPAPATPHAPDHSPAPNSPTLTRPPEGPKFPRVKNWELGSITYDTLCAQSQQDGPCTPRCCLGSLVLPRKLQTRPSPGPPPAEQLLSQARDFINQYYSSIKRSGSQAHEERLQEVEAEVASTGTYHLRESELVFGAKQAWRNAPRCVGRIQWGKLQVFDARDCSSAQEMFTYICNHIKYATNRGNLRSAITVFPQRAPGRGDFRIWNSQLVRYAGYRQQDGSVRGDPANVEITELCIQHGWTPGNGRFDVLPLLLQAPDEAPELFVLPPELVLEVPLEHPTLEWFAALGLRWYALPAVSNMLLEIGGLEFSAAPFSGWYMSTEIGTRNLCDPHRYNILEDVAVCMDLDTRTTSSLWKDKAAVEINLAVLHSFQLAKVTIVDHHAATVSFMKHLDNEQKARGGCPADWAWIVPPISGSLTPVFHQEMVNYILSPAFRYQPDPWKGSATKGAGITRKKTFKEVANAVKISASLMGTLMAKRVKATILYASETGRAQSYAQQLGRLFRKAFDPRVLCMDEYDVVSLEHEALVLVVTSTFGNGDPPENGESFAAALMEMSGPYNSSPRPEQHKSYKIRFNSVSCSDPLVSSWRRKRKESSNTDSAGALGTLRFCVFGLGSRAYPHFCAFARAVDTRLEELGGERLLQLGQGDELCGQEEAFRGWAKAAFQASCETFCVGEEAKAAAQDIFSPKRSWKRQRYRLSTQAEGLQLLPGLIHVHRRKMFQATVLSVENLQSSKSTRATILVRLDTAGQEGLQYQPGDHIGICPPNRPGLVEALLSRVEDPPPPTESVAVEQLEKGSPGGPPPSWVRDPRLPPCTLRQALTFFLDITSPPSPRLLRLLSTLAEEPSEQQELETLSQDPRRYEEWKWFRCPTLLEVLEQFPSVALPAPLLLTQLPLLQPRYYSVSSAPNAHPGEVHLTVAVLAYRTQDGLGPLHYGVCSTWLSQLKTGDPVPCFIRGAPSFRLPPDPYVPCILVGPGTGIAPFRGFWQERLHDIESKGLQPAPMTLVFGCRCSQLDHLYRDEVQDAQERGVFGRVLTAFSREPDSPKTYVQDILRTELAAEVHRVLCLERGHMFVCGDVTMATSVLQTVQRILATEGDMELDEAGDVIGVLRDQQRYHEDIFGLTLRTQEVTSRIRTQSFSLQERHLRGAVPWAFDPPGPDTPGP

Like-named read-outs stand apart in the source and are kept apart here.

Regarding `CN(C)CCn1ccc2ccc(NC(=N)c3cccs3)cc21`, the IC50 in experiment [1] is 60 µM; at Rat nNOS (read-out: Rat nNOS, Table 2a), 8.8 µM; at murine macrophage iNOS (read-out: Murine iNOS, Table 2a) it was 109 µM; at bovine eNOS (setting [6]), 211 µM. In addition, the “protection of neuronal cells from death upon NMDA challenge” value in experiment [2] is on record as “protected neuronal cells from death”. Also, in the experiment with Neuronal cultures, the “protection of neurons against OGD insult” value was “protected neurons”. Further, the “inhibition of NMDA-induced Ca^2+ influx” value in experiment [3] was “dose-dependent (10-50 μM) inhibition”. Besides, the “block of NMDA-induced currents” value in the experiment with NMDA-induced currents is reported as “effectively blocked NMDA-induced currents”. Also, in experiment [4], the “formalin-induced hind paw licking” value was “reduction in the frequency of paw licking”. The Hall score result in the experiment with traumatic brain injury (4 hours after TBI, 6 mg/kg s.c.) is “significant improvement”; with traumatic brain injury (setting [7]) it was “no significant improvement”. Besides, the grip score result with traumatic brain injury (4 hours following TBI, 3 mg/kg s.c.) is reported as “significant improvement”; in the experiment with traumatic brain injury (4 hours following TBI, 6 mg/kg s.c.) it was “trend towards improvement”. Also, the string score result with traumatic brain injury (4 hours following TBI, 3 and 6 mg/kg s.c.) is “significant improvement”; in the experiment with traumatic brain injury (setting [7]) it was “no significant improvement”. For the same compound, in the experiment with traumatic brain injury (24 hours after TBI, 3 mg/kg), the body weight result is on record as “significant improvement in body weight”. Further, the “string, grip and Hall scores” value in the experiment with traumatic brain injury (24 hours after TBI, single s.c. dose) is recorded as “non-significant trend towards improvement”. Besides, the body temperature entry with traumatic brain injury (24 hours post TBI, low-dose 1 mg/kg, vs uninjured or 3 or 6 mg/kg) was “lower body temperature”; in the experiment on traumatic brain injury (One hour post TBI, treated vs control injured mice), “no difference between treated and control mice”. The same compound came in with a PS amplitude in the experiment with CA1 hippocampal slices (50 μM, slices exposed to 10 min OGD, n=3) of 2.1±1.5 mV. In addition, in the experiment on CA1 hippocampal slices (slices after 10 min OGD, compound 12 50 μM, 7-NI 100 μM, FIG. 16), the “preservation of population spike” value is “preservation of population spike”. Further, in the experiment with Hippocampal slices, the “absorbance retained (TTC staining)” value turned out to be 92±18%. Moreover, in [5] (L5/L6 spinal nerve ligation, FIGS. 20 and 22), the tactile hyperthesia entry was “reversal of tactile hyperthesia”. For the same compound, the thermal hyperalgesia result in experiment [5] (one standard dose (10 mg/kg) injected IP, FIG. 19, 21) is “clear antihyperalgesic effect”.
On to `N=C(Nc1ccc2ccn(CCNCCc3ccc(Br)cc3)c2c1)c1cccs1`, for which the IC50 on Rat nNOS (setting [8]) amounted to 3.7 µM; at murine macrophage iNOS (setting [9]) it was 213 µM; at bovine eNOS (read-out: Bovine eNOS, Table 2a, tested form: HCl), 103 µM.
Take `CCSC(=N)Nc1ccc2ccn(CCN(C)C)c2c1`: the IC50 at Rat nNOS (setting [8]) is 2.3 µM; at murine macrophage iNOS (setting [9]), 56 µM.
Turning to `N=C(Nc1ccc2ccn(CCN3CCCC3)c2c1)c1cccs1`, the IC50 on Rat nNOS (read-out: Rat nNOS, Table 2a) was determined as 9.4 µM; on bovine eNOS (setting [6]), 29.2 µM. For the same compound, in experiment [2], the “protection of neuronal cells from death upon NMDA challenge” value is recorded as “protected neuronal cells from death”.

The values above are taken from patent publication US8586620B2, “Substituted indole compounds having NOS inhibitory activity” (NeurAxon, Inc., priority 2005, dated 2013).
